The values below come from patent EP2106802A1, “Modified peptides as synthetic vaccines in amyloid-associated disease” (SIGMA-TAU Industrie Farmaceutiche Riunite S.p.A., priority 2008, dated 2009).

For data set [1], the system named is IFN-γ.
The subject of data set [2] is T lymphocytes expressing CXCR5 in PBMCs of healthy donors. Put plainly: CXCR5 expression in T-lymphocytes after peptide stimulation (flow cytometry). In kind it is cell-based, human. As to conditions: for Percentage of T-lymphocytes expressing CXCR5: peptides 5ug/ml, 4 days after third stimulation. As for the experimental part: In order to evaluate the expression of a specific marker (CXCR5) in cultured […], the cells, 4 days after the third stimulation, were washed twice and stained with anti-CXCR5, in PBS supplemented with 0.5% FCS and 0.01%NaN3 at 4°C. After twenty minutes they were washed twice and analysed on FACSCanto flow cytometer (Becton Dickinson). The data were analyzed using FlowJo software (TreeStar, CA, USA).
Table 3. The CXCR5 expression measured as % of T lymphocytes expressing CXCR5 in PBMCs of healthy donors vs total lymphocytes (median, 1st and 3rd quartile) has been reported. Friedman Repeated Measures Analysis of Variance on Ranks has been performed. Column 1: number of different donors (Pz); column 2: the percentage of control (CTR) not challenged T lymphocytes expressing CXCR5; columns 3-12: the percentage of T lymphocytes expressing CXCR5 after the stimulation with different peptides.
CXCR5, a chemokine transmembrane receptor belonging to the CXC chemokine receptor family plays an essential role in B cell activation (Legler D.F., et al., J. Exp. Med., 1998, 187, 4, 655). The CXCR5 expression was measured as % of T-lymphocytes expressing CXCR5 versus total lymphocytes (median, 1st and 3rd quartile) and Friedman Repeated Measures Analysis of Variance on Ranks was performed.

For “Seq.2: Aβ[1-16] fragment of the Aβ[1-42] sequence (DAEFRHDSGYEVHHQK)”, the “production of IFN-γ in challenged T-lymphocytes” value in data set [1] is recorded as “statistically significative production of IFN-γ”. Further, in data set [2] (1st and 3rd quartile of 10 donors), the “Percentage of T-lymphocytes expressing CXCR5, 1st and 3rd quartine” value is 9.9-44.0%. Besides, in data set [2] (T-lymphocytes, Friedman test, result in words), the “expression of CXCR5 with respect to CTR” value is reported as “statistically different expression of CXCR5 with respect to CTR”. Further, the “Percentage of T-lymphocytes expressing CXCR5” value is given as 23.09% in data set [2] (donor Pz1); 21.09% in data set [2] (donor Pz2); 83.07% in data set [2] (donor Pz3); 2.08% in data set [2] (donor Pz4); 9,9% in data set [2] (donor Pz5); 6,9% in data set [2] (donor Pz6). Moreover, the entries for the “Percentage of T-lymphocytes expressing CXCR5” value in data set [2] (donor Pz7), in data set [2] (donor Pz8) and in data set [2] (donor Pz9) were 14,8%, 44.00% and 46.05%, respectively. Moreover, the “Percentage of T-lymphocytes expressing CXCR5, Median” value in data set [2] (median of 10 donors, * P = <0,001 (Friedman)) is listed as 22.9* %.
